In ChEMBL document CHEMBL1134604, “2-Alkynyl-8-aryl-9-methyladenines as novel adenosine receptor antagonists: their synthesis and structure-activity relationships toward hepatic glucose production induced via agonism of the A(2B) receptor” (J Med Chem, 2001):

Target: T1, Adenosine receptor A2b (Rattus norvegicus, UniProt P29276)
T1 sequence (P29276 whole entry): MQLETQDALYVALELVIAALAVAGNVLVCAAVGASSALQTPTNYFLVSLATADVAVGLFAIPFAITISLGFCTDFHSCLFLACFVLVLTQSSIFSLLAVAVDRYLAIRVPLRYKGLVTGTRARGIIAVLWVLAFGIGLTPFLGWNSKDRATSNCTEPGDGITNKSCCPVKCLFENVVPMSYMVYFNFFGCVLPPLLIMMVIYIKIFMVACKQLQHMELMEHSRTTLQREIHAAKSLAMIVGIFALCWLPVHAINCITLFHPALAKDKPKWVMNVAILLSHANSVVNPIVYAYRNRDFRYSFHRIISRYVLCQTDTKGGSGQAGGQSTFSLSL
Assay: Inhibitory activity on N-ethylcarboxamidoadenosine (NECA)-induced glucose production in primary cultured rat hepatocytes
Type: functional, cell-based, Hepatocyte

IC50: > 10 µM
Structure (SMILES): CCCn1c(=O)c2c(nc(/C=C/c3ccc(OC)c(OC)c3)n2C)n(CCC)c1=O
